Test results: PubChem BioAssay AID651635 (National Center for Advancing Translational Sciences (NCATS), 2012)
This is a selection; strong and weak results do not stand in their true shares. Records with an inconclusive call do not appear. Activity calls are given as the source filed them. Calls come from the whole dose curve; as a rule, active = well fitted cell-killing curve with a large enough effect; inconclusive = small, poorly fitted or top-dose-only effect, or effect the other way; inactive = no such curve, though single readings can be large or run the other way.

Test: Viability Counterscreen for Primary qHTS for Inhibitors of ATXN expression; note: nearly all actives have a fitted effect of over 40% in size
Conditions: S2 cells (HEK-293 line with an ATXN2-luciferase reporter) viability, CellTiter-Fluor protease fluorescence, 24 h; series mostly up to 56.7 µM; activity change, negative = cytotoxicity: at the top concentration
Potency is the fitted concentration of half-maximal effect.

SMILES	activity change, negative = cytotoxicity	Potency
O=C(Nc1ccncc1[N+](=O)[O-])c1ccc([N+](=O)[O-])cc1[N+](=O)[O-]	inactive: -35.2%	
COP1(=S)c2c(C)nn(CCC#N)c2N=C(c2ccc(F)cc2)N1C (centres undefined)	inactive: -7.07%	
COC(=O)C1(C)COP(=O)(N2CCCC2)OC1 (centres undefined)	inactive: 6.5%	
Cc1cc(SC(NC=O)C(Cl)(Cl)Cl)ncn1 (centres undefined)	inactive: -2.65%	
CCOC(=O)Nc1cccc([As](=O)(O)O)c1	inactive: 3.78%	
COP(=O)(OC)N1CC1c1ccccc1 (centres undefined)	inactive: 23.8%	
CCCCOc1ccc(C(=O)NCC2(N3CCCCC3)CCCCC2)cc1OC	inactive: -18.5%	
Cc1cc(SC(NC(=O)c2ccccc2)C(Cl)(Cl)Cl)nc(C(C)C)n1 (centres undefined)	inactive: -2.68%	
CCOC(=O)Nc1ccc([As](=O)(O)O)c(O)c1	inactive: -8.35%	
O=C(O)C(O)c1ccc(N(CCCl)CCCl)cc1 (centres undefined)	inactive: -23.5%	
CC1CCNP(=O)(N(CCCl)CCCl)O1 (centres undefined)	inactive: -23.2%	
CC(C)NC(=O)NP(=O)(Oc1ccccc1)Oc1ccccc1	inactive: 3.58%	
O=C(OC1CN2CCC1CC2)c1cccc2[nH]cnc12 (centres undefined)	inactive: -18.7%	
CCN(CC)C(=S)SC(NC=O)C(Cl)(Cl)Cl (centres undefined)	inactive: -0.56%	
ClCCSc1nnc(-c2cccnc2)o1	inactive: -36.4%	
COC(=O)C1(C)COP(=O)(N2CCCCCC2)OC1 (centres undefined)	inactive: -27%	
CC(C)c1ccc(OP(=O)(Nc2ccccn2)Oc2ccccc2F)cc1 (centres undefined)	inactive: -29.2%	
[N-]=[N+]=NC1CCCCC1NC(=O)c1cc([N+](=O)[O-])cc([N+](=O)[O-])c1 (centres undefined)	inactive: -26.2%	
Cc1ccc(OP(=O)(Nc2ccc([N+](=O)[O-])cn2)Oc2ccc(C)cc2)cc1	inactive: -29.7%	
Cc1ccc2nc3c(c(C)c2c1)CC(C(Cl)Cl)S3 (centres undefined)	inactive: 18.9%	
C[As](=O)(O)c1cccc(C(=O)O)c1	inactive: -28%	
O=[As](O)(c1ccc(O)cc1)c1ccccc1O	inactive: -13%	
O=[N+]([O-])c1ccc(-c2cc([N+](=O)[O-])c(O)c([N+](=O)[O-])c2)cc1	inactive: -17.9%	
COc1cc(C(=O)NCC2(N3CCOCC3)CCCCC2)ccc1OCC(C)C	inactive: 1.81%	
O=[N+]([O-])c1cc(Oc2ccc([N+](=O)[O-])cc2C(F)(F)F)cc([N+](=O)[O-])c1	inactive: -38.7%	

SMILES	activity change, negative = cytotoxicity	Potency
O=P1(N(CCCl)CCCl)OCCCN1CCCl (centres undefined)	inactive: -30.5%	
O=P1(N(CCCl)CCCl)Nc2ccccc2N1	inactive: -0.936%	
COc1cc(I)ccc1[As](=O)(O)O	inactive: -23.4%	
Cc1c2c(nc3ccccc13)SC(C(Cl)Cl)C2 (centres undefined)	inactive: -27.9%	
O=C(OC1CN2CCC1CC2)C12CC3CC(CC(C3)C1)C2 (centres undefined)	inactive: -22.8%	
Cc1cc(=O)[nH]c(N[N+](=O)[O-])n1	inactive: -14.4%	
CCOP(=O)(Nc1cccc2ccccc12)OCC	inactive: 3.7%	
Nc1cccc2c([As](=O)(O)O)cccc12	inactive: 11.8%	
Cc1ccc(NCCc2c([N+](=O)[O-])cc([N+](=O)[O-])cc2[N+](=O)[O-])cc1	inactive: -23.5%	
CCCOP(=S)(Nc1nc(N)cc(=O)[nH]1)OCCC	inactive: 16.1%	
Cc1cccc(OCC(=O)OC2CN3CCC2CC3)c1 (centres undefined)	inactive: -7.91%	
O=C(OC1CN2CCC1CC2)c1ccc(Cl)cc1 (centres undefined)	inactive: -32.7%	
O=[As](O)(O)c1cccnc1	inactive: -15%	
COc1cc(C(=O)NCC2(N3CCOCC3)CCCCC2)cc(Cl)c1OC(C)C	inactive: 26.1%	
CS(=O)(=O)c1ccc(Cl)c(NC(=O)COC(=O)C(O)(c2ccccc2)c2ccccc2)c1	inactive: -35.8%	
N#CCCN(C(=O)COC(=O)C(O)(c1ccccc1)c1ccccc1)c1ccc(F)cc1	inactive: 7.85%	
CCOP1(=S)c2c(C)nn(CCC#N)c2N=C(c2ccc(F)cc2)N1C (centres undefined)	inactive: -5.34%	
O=[N+]([O-])c1ccc2c(c1)nnn2O	inactive: 0.0743%	
CN(C)C(=O)c1cc([N+](=O)[O-])cc2c1-c1c(cc([N+](=O)[O-])cc1[N+](=O)[O-])C2=O		active: 31.6 µM
CN(C(=O)Cc1ccc(Cl)c(Cl)c1)[C@H]1CC[C@@]2(CCCO2)C[C@@H]1N1CCCC1		inactive
NC(=O)Nc1ccc([As](=O)(O)O)cc1		inactive
Nc1ccccc1[As](=O)(O)c1ccccc1	inactive: -0.746%	
O=C(O)COc1ccc([As](=O)(O)O)cc1[N+](=O)[O-]	inactive: 17.8%	
CCOP1(=S)c2c(C)nn(CCC#N)c2N=C(c2ccccc2F)N1C (centres undefined)	inactive: -13.7%	
O=P(Nc1nccs1)(Oc1ccccc1)Oc1ccccc1	inactive: -6%	

SMILES	activity change, negative = cytotoxicity	Potency
O=P(Nc1nccs1)(c1ccccc1)c1nc2ccccc2s1 (centres undefined)	inactive: -23.5%	
CS(=O)(=O)c1cc([N+](=O)[O-])c2no[n+]([O-])c2c1	inactive: -10.7%	
Nc1cccc([As](=O)(O)c2ccccc2)c1	inactive: -26%	
O=[As](O)(c1cccs1)c1cccs1	inactive: -2.59%	
Cc1ccc(OCC(=O)OC2CN3CCC2CC3)cc1 (centres undefined)	inactive: -8.08%	
O=P1(Nc2ccc(Br)cn2)COc2ccccc2OC1	inactive: -36.7%	
NS(=O)(=O)c1cccc(NC(=O)COC(=O)C(O)(c2ccccc2)c2ccccc2)c1	inactive: -21.6%	
O=P1(Nc2ncccn2)COc2ccccc2OC1	inactive: -14%	
CN(C)C1(CNC(=O)c2ccc(S(C)(=O)=O)cc2)CCCCC1	inactive: -5.73%	
O=C(/C=C/c1ccccc1)OC1CN2CCC1CC2 (centres undefined)	inactive: 16.1%	
CCCC1OP(=O)(Nc2ccccc2)OCC1CC (centres undefined)	inactive: -6.49%	
Cc1nn(-c2ccccc2)c2c1P(=O)(N1CCOCC1)N(C)C(c1ccccc1)=N2 (centres undefined)	inactive: -11.5%	
CC1CCC(C(C)C)C(OP(=O)(Nc2ccccn2)c2ccccc2)C1 (centres undefined)	inactive: -6.58%	
CC(C)/C=N\N=C(\N)N[N+](=O)[O-]	inactive: 24.8%	
CN(C(=O)Cc1ccc(Cl)c(Cl)c1)[C@@H]1CCCC[C@H]1N1CCCC1	inactive: 19.6%	
CC1(CBr)Cn2c(nc3ccccc3c2=O)S1 (centres undefined)	inactive: -35.5%	
COc1ccccc1CNC(=O)COC(=O)C(O)(c1ccccc1)c1ccccc1	inactive: -37.6%	
O=P1(N(CCCl)CCCl)NCCC(C(F)(F)F)O1 (centres undefined)	inactive: -27%	
CC(C)(C)C(=O)NC(Sc1ncccn1)C(Cl)(Cl)Cl (centres undefined)	inactive: -21%	
O=P1(Nc2ccccn2)COc2ccccc2OC1	inactive: 17.2%	
CCC1=CC2Cc3nc4ccc(Cl)cc4c(N)c3C(C1)C2 (centres undefined)		active: 20 µM
CCOP(=O)(NC(=NC(C)c1ccccc1)NC(C)c1ccccc1)OCC (centres undefined)	inactive: -13.4%	
CCOP(=O)(Nc1ccc(C)cn1)OCC	inactive: -31.3%	
CN(CCCl)Cc1cc(Cl)c(NC2=NCCN2)c(Cl)c1	inactive: -26.4%	
